Results from US10350200B2, “Aqueous suspensions of oximes for autoinjectors” (dated 2019).

Tests used:
[1] = white crystalline powder; Canadian Patent Application No. 689384; cited from earlier work
[2] = Steam sterilization stability of aqueous suspension; conditions: 780 mg/g aqueous suspension; 121° C./15 psi, 15 min
[3] = Density of 2-PAM Cl/water solution at maximum solubility; conditions: 2-PAM Cl at the identified particle size distribution
[4] = Solubility of milled 2-PAM Cl in water at ambient temperature

In the case of `C[n+]1ccccc1/C=N/O`, the solubility in water [1] is listed as “one gram in less than one cc”, the “chemical stability after steam sterilization, level of 2-PAM Cl” value [2] is listed as 97 % of pre-sterilization level and the “density of 2-PAM Cl/water solution at maximum solubility” value [3] is listed as “about 1.15 g/cc”. For the same compound, the “amount of 2-PAM Cl as solid in suspension when 780 mg placed in 220 mg of water” value ([4]; 780 mg 2-PAM Cl in 220 mg water) was 660 mg, the “amount of 2-PAM Cl that dissolved when 780 mg placed in 220 mg of water” value ([4]; 780 mg 2-PAM Cl in 220 mg water, calculated from 352 mg/648 mg) was 120 mg and the “amount of 2-PAM Cl that would dissolve in 648 mg of water” value ([4]; ambient temperature, milled particle size distribution 10-100 μm, in 648 mg of water) was 352 mg. The “amount of 2-PAM Cl that will dissolve in 1 gram of water” value ([4]; per 1000 mg H2O, calculated from 120 mg/220 mg) was 545 mg.
